Sequences of proteins named here, by UniProt entry; tags and fusion partners are left off.
UniProt P08485, whole entry: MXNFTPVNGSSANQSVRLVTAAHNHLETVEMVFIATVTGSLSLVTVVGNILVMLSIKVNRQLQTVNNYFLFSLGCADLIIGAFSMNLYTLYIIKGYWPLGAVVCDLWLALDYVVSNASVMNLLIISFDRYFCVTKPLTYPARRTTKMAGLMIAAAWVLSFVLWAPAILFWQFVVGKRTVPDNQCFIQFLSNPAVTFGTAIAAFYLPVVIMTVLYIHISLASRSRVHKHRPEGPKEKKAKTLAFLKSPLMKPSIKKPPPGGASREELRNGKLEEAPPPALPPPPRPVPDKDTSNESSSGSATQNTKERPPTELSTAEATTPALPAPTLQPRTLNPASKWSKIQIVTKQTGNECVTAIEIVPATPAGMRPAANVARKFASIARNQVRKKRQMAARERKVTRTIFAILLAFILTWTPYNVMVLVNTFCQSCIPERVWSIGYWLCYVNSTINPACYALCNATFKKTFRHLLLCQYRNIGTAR
UniProt P08173, whole entry: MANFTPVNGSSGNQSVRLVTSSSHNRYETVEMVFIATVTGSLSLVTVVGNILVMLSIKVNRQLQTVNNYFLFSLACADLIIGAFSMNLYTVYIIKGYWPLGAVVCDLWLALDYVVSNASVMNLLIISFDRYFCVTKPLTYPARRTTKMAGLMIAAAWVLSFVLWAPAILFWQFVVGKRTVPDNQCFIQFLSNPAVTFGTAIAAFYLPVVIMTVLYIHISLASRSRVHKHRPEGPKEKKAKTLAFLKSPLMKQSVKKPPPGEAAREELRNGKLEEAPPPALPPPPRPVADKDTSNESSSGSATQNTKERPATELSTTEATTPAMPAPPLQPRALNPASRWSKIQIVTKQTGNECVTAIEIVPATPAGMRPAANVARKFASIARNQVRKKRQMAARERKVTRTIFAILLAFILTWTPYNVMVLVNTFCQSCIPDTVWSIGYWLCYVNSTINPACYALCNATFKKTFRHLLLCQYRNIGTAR

According to publication PMC4324418 (ACS Chemical Neuroscience, 2014):

Assays:
wild-type mice = test: Amphetamine-induced hyperlocomotion in wild-type mice; format: in vivo, mouse; conditions: SC, 1–3 mg/kg tested
M4 KO mice = test: Amphetamine-induced hyperlocomotion in M4 KO mice; format: in vivo, mouse; conditions: SC, lowest significant dose (also 3 mg/kg)
rat M4 receptor = rat M4 receptor (Rattus norvegicus, UniProt P08485); test: cell-based
human M4 = human M4 (Homo sapiens, UniProt P08173); test: cell-based

Row | Compound | dose with significant effect on locomotor activity (wild-type mice) | dose with significant effect on locomotor activity (M4 KO mice) | EC50 (rat M4 receptor) | EC50 (human M4)
1 | C[C@H](N)Cc1ccccc1 [Amphetamine, D-Amphetamine hemisulfate, reference compound] | 3 mg/kg | 1.8 mg/kg |  | 
2 | Cc1nnc2sc(C(=O)NCc3ccc(S(=O)(=O)C(F)(F)F)cc3)c(N)c2c1C [VU0467154, 5-amino-3,4-dimethyl-N-(4-((trifluoromethyl)sulfonyl)benzyl)thieno[2,3-c]pyridazine-6-carboxamide] |  |  | 17.7 nM | 627 nM
